The record followed here is patent US4190666A, “Anti-inflammatory 4,5-diarly-2-(substituted-thio)imidazoles and their corresponding sulfoxides and sulfones” (E. I. Du Pont de Nemours and Company, priority 1978, dated 1980).

The experiment has as its system established adjuvant-induced arthritis in rats. The experiment is described as follows: Established adjuvant-induced arthritis in rats (therapeutic, paw volume). The format is in vivo, Charles River Lewis male rats. The conditions noted are these: oral, 7 daily doses, ED50% decrease from control paw volume, Tables I-III.

Consider `COc1ccc(-c2nc(SC(F)(F)C(Br)Br)[nH]c2-c2ccc(OC)cc2)cc1`, for which the “Adjuvant Arthritis (ED50%)” value was 23 mg/kg.
